Shown are actives, neighbours in structure and some others; about 0.91% of the full set was active somewhere.
FN deposit inh: fibronectin deposition inhibition | AH1F fibroblasts, Alexa488-fibronectin deposition fluorescence, overnight | inhibition, % at 12.6 µM | 350,000 tested, 0.086% active | AID 743247;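 active = mean inhibition across replicates of 30% or more, regardless of how many single replicates reach that level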;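 note: positive control wells lacked labelled fibronectin entirely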
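Material: AH1F fibroblast monolayer depositing Alexa488-labelled fibronectin into matrix / Amount: 10000 AH1F cells per well / Signal: fluorescence 485/525 nm / Medium: DMEM, 2% serum / Compound: single dose, pinned / Incubation: 1 h cell adhesion before compound, then overnight fibronectin incubation / Reagent: Alexa488-FN, 24 nM final / Read-out: inhibition of fibronectin deposition signal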
PGC1a acetyl inh: modulators of PGC1a acetylation; U2OS PGC1a acetylation, AlphaScreen anti-acetyl-lysine; with virally co-expressed GCN5 acetyltransferase; inhibition, % at 15.6 µM; 350,000 tested, 0.17% active; AID 651687;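 active = every replicate shows inhibition of at least 40%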;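 note: 0% = neutral control wells and 100% = positive control wells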
Statin myotox sup: protects C2C12 myotubes from simvastatin toxicity; ATP luminescence, 48 h; scaled: DMSO 0, geranylgeraniol control 100; 330,000 tested, 0.78% active; AID 602340; rescue of ATP level, % at 7.49 µM;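 active = mean ATP rescue above about 67%, or every replicate alone reaching that limit, limit read from the data, passing the limit was not always enough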;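 note: myotubes were challenged with 10 µM simvastatin during compound exposure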
Yeast UUG start-1: modulators of start codon recognition fidelity in yeast. activity score, % at 18.7 µM. S. cerevisiae UUG-firefly luciferase reporter, luminescence/redox ratio. 350,000 compounds, 0.13% hits;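 active means replicate mean at a twofold rise or more, about +100% in these data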;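 further: firefly luciferase made from a UUG start codon reports start codon fidelity; reporter light over untreated wells divided by growth signal over untreated wells; some hits fall short of that in this replicate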
iPSC survival up: hiPSC single-cell survival enhancement | ATPlite luminescence; 100% = ROCK inhibitor wells, 0% = DMSO | survival enhancement, % at 20 µM | 360,000 tested, 0.044% active | AID 602274; in the data active = survival enhancement above about 18%;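 note: cells exposed to compounds for 16 hours before the ATP read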
Yeast UUG start-2: alters UUG start codon use in yeast; shares compounds with Yeast UUG start-1; S. cerevisiae UUG-start firefly luciferase, luminescence, 4 h; 100% means double the DMSO signal; activation, % at 38 µM; 540 tested, under 10 active; AID 652061;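 active = signal increase whose fitted curve reaches an absolute level of 40 at a concentration under 10 µM; inactive = activity opposite to the expected increase, or the rest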
Numbers without * were called inactive; i = inactive; . = not tested or not shown.

Molecule | FN deposit inh | PGC1a acetyl inh | Statin myotox sup | Yeast UUG start-1 | iPSC survival up | Yeast UUG start-2
O=C(NCC[C@H]1CC[C@H](NC(=O)C2CCCCC2)[C@H](CO)O1)c1cnccn1 | -3 | -2 | 3 | 158* | . | i
O=S(=O)(N[C@H]1CC[C@@H](CCn2cc(C3(O)CCCC3)nn2)O[C@@H]1CO)c1ccc(F)cc1 | . | 0 | -6 | 178* | . | i
O=C(N[C@H]1CC[C@H](CCn2cc(C3(O)CCCC3)nn2)O[C@H]1CO)C1CCCCC1 | . | 3 | 7 | 162* | . | i
O=C(N[C@@H]1CC[C@H](CCn2cc(C3(O)CCCC3)nn2)O[C@@H]1CO)C1CCCCC1 | . | -1 | 1 | 7 | . | .
Cc1ccc(S(=O)(=O)N2[C@@H]3CNC[C@H]2C3c2ccc(-c3ccc(C(=O)N(C)C)cc3)cc2)cc1 (stereo partly specified) | -7 | 5 | . | . | . | .
Cc1cc(C)c[n+](C2=C([O-])c3ccccc3C(=O)/C2=N\S(=O)(=O)c2cccs2)c1 | -7 | . | . | . | -5 | .
Cc1cc[n+](C2=C([O-])c3ccccc3C(=O)/C2=N\S(=O)(=O)c2cccs2)cc1C | 2 | 7 | 8 | 446* | -2 | 0
COc1ccccc1OCCNC(=O)c1ccc(NC(=O)CC2SC(N3CCCC3)=NC2=O)cc1 (stereo unspecified) | -3 | 2 | 9 | -1 | 0 | .
COc1ccccc1CCNC(=O)c1ccc(NC(=O)CC2SC(N3CCCCC3)=NC2=O)cc1 (stereo unspecified) | 0 | -9 | -2 | 117* | 0 | 7
COc1ccc2c3c([nH]c2c1)[C@H](CO)N(C(=O)C1CCOCC1)CC31CN(Cc2cccc(F)c2)C1 | . | 5 | . | . | . | .
CCOC(=O)CNC(=O)c1nn(-c2ccc(OCC)cc2)c(=O)c2ccccc12 | . | 11 | 0 | 119* | 0 | -9
CCN(CC)c1ccc(-c2nc3cnccn3c2NC2CCCC2)cc1 | -4 | 3 | -36 | 181* | 1 | 3
c1cn2c(NC3CCCCC3)c(-c3ccc(SC4CCCCC4)cc3)nc2cn1 | -2 | 5 | 11 | -18 | -2 | .
Cc1noc(C)c1NC(=O)N(C)C[C@H]1OCCCC[C@@H](C)Oc2ccc(NS(=O)(=O)c3ccc(F)cc3)cc2C(=O)N([C@@H](C)CO)C[C@H]1C | -4 | . | 63 | -1 | . | .
Cc1noc(C)c1NC(=O)N(C)C[C@@H]1OCCCC[C@H](C)Oc2ccc(NS(=O)(=O)c3ccc(F)cc3)cc2C(=O)N([C@@H](C)CO)C[C@@H]1C | -1 | . | -25 | 183* | . | i
CC(C)NC(=O)Nc1cccc2c1O[C@H](CN(C)Cc1ccc(C(=O)O)cc1)[C@H](C)CN([C@H](C)CO)C2=O | -8 | -5 | 4 | 132* | . | i
C[C@@H]1CCCCO[C@H](CN(C)Cc2ccc(C(F)(F)F)cc2)[C@H](C)CN([C@@H](C)CO)C(=O)c2cc(NC(=O)Nc3ccc(F)cc3)ccc2O1 | -2 | 1 | . | 7 | . | .
C[C@H](CO)N1C[C@H](C)[C@H](CN(C)Cc2ccc(C(F)(F)F)cc2)OCCCC[C@H](C)Oc2ccc(NC(=O)Nc3ccc(F)cc3)cc2C1=O | 4 | -29 | . | 120* | . | i
C[C@H](CO)N1C[C@H](C)[C@H](CN(C)Cc2ccccc2)OCCCC[C@H](C)Oc2ccc(NS(=O)(=O)c3ccc(F)cc3)cc2C1=O | -7 | 8 | . | 235* | . | i
CC(C)NC(=O)Nc1cccc2c1O[C@H](CN(C)Cc1ccccc1)[C@H](C)CN([C@@H](C)CO)C2=O | -10 | -8 | -12 | -15 | . | .
Cc1ccc(S(=O)(=O)Nc2ccc3c(c2)CC(=O)N([C@@H](C)CO)C[C@@H](C)[C@H](CN(C)C)O3)cc1 | . | 5 | -3 | 25 | . | .
C[C@H](CO)N1C[C@H](C)[C@@H](CN(C)CC2CCCCC2)OCCCC[C@H](C)Oc2ccc(NS(=O)(=O)c3cn(C)cn3)cc2C1=O | . | . | -14 | 136* | . | i
C[C@H]1CCCCO[C@H](CN(C)C(=O)c2ccccc2)[C@@H](C)CN([C@@H](C)CO)C(=O)c2cc(NC(=O)CCC(F)(F)F)ccc2O1 | 5 | 2 | . | 128* | . | i
C[C@@H]1CCCCO[C@H](CN(C)CC2CCCCC2)[C@@H](C)CN([C@H](C)CO)C(=O)c2cc(NS(=O)(=O)c3cn(C)cn3)ccc2O1 | . | . | 35 | 4 | . | .

Whole records as entered above. Order of values: FN deposit inh | PGC1a acetyl inh | Statin myotox sup | Yeast UUG start-1 | iPSC survival up | Yeast UUG start-2
`C[C@@H]1CCCCO[C@H](CN(C)Cc2ccc(C(F)(F)F)cc2)[C@H](C)CN([C@@H](C)CO)C(=O)c2cc(NC(=O)Nc3ccc(F)cc3)ccc2O1` in the list: -2 | 1 | . | 7 | . | .
`CC(C)NC(=O)Nc1cccc2c1O[C@H](CN(C)Cc1ccccc1)[C@H](C)CN([C@@H](C)CO)C2=O` in the list: -10 | -8 | -12 | -15 | . | .
`Cc1ccc(S(=O)(=O)Nc2ccc3c(c2)CC(=O)N([C@@H](C)CO)C[C@@H](C)[C@H](CN(C)C)O3)cc1` in the list: . | 5 | -3 | 25 | . | .
`C[C@H](CO)N1C[C@H](C)[C@H](CN(C)Cc2ccccc2)OCCCC[C@H](C)Oc2ccc(NS(=O)(=O)c3ccc(F)cc3)cc2C1=O` in the list: -7 | 8 | . | 235* | . | i

The results go on.
Molecule | FN deposit inh | PGC1a acetyl inh | Statin myotox sup | Yeast UUG start-1 | iPSC survival up | Yeast UUG start-2
CCCc1[nH]nc2c1C(Cc1ccccc1)C(C#N)=C(N)O2 (stereo unspecified) | . | 6 | 3 | 501* | 1 | 10
Fc1ccc(NC(=S)NCc2cccs2)cc1 | . | 9 | -37 | 253* | -1 | -6
CCOc1ccc(C(=O)NCC(C)NC(=O)c2ccc(OCC)cc2)cc1 (stereo unspecified) | -4 | . | 14 | 109* | 0 | 10
CCOc1ccc(C(=O)NCC(C)C)cc1 | -3 | . | . | 1 | -4 | .
C[C@@H]1CN([C@H](C)CO)C(=O)c2cc(NS(=O)(=O)c3cccs3)ccc2O[C@@H](C)CCCCO[C@H]1CN(C)S(=O)(=O)c1ccc(F)cc1 | . | 8 | . | -17 | . | .
O=[N+]([O-])c1c(NCc2ccco2)ccc2nonc12 | 9 | -2 | . | 134* | 0 | 3
COc1ccc(-c2oc(NC(=O)CSc3ncn[nH]3)c(C#N)c2-c2ccc(OC)cc2)cc1 | . | . | . | . | 10 | .
COc1ccc(-c2oc(NC(=O)CCl)c(C#N)c2-c2ccc(OC)cc2)cc1 | 0 | . | 18 | 308* | 0 | 14
COc1c(C)cccc1C(=O)NCc1ccc2c(c1)OCO2 | -1 | 2 | 11 | active | 0 | -10
Cc1c(C(=O)NCc2ccc3c(c2)OCO3)cccc1[N+](=O)[O-] | -1 | . | . | . | 1 | .
